From patent publication US11099188B2

System: ALK in Karpas 299 cells
Experiment: Western blotting of phosphorylation in Karpas 299 cells
Settings: 0, 0.1, 0.3, or 1.0 uM for three hours, FIG. 22

C[C@@H](Oc1cc(-c2cnn(C3CCNCC3)c2)cnc1N)c1c(Cl)ccc(F)c1Cl [crizotinib]
ALK, STAT3 and ERK phosphorylation: inhibited
